Results published in paper PMC3210919 (Biochemistry, 2011).

Substrate: CC(=O)C(=O)O
Test: Coupling study: initial rates of Pi release at varying pyruvate
Format: biochemical, Rhizobium etli
Conditions: 15 mM HCO3^−
[1] = other: pyruvate varied, (−) acetyl-CoA

B1: wild-type RePC (Rhizobium etli CFN 42) (protein)
chain: MPISKILVANRSEIAIRVFRAANELGIKTVAIWAEEDKLALHRFKADESYQVGRGPHLARDLGPIESYLSIDEVIRVAKLSGADAIHPGYGLLSESPEFVDACNKAGIIFIGPKADTMRQLGNKVAARNLAISVGVPVVPATEPLPDDMAEVAKMAAAIGYPVMLKASWGGGGRGMRVIRSEADLAKEVTEAKREAMAAFGKDEVYLEKLVERARHVESQILGDTHGNVVHLFERDCSVQRRNQKVVERAPAPYLSEAQRQELAAYSLKIAGATNYIGAGTVEYLMDADTGKFYFIEVNPRIQVEHTVTEVVTGIDIVKAQIHILDGAAIGTPQSGVPNQEDIRLNGHALQCRVTTEDPEHNFIPDYGRITAYRSASGFGIRLDGGTSYSGAIITRYYDPLLVKVTAWAPNPLEAISRMDRALREFRIRGVATNLTFLEAIIGHPKFRDNSYTTRFIDTTPELFQQVKRQDRATKLLTYLADVTVNGHPEAKDRPKPLENAARPVVPYANGNGVKDGTKQLLDTLGPKKFGEWMRNEKRVLLTDTTMRDGHQSLLATRMRTYDIARIAGTYSHALPNLLSLECWGGATFDVSMRFLTEDPWERLALIREGAPNLLLQMLLRGANGVGYTNYPDNVVKYFVRQAAKGGIDLFRVFDCLNWVENMRVSMDAIAEENKLCEAAICYTGDILNSARPKYDLKYYTNLAVELEKAGAHIIAVKDMAGLLKPAAAKVLFKALREATGLPIHFHTHDTSGIAAATVLAAVEAGVDAVDAAMDALSGNTSQPCLGSIVEALSGSERDPGLDPAWIRRISFYWEAVRNQYAAFESDLKGPASEVYLHEMPGGQFTNLKEQARSLGLETRWHQVAQAYADANQMFGDIVKVTPSSKVVGDMALMMVSQDLTVADVVSPDREVSFPESVVSMLKGDLGQPPSGWPEALQKKALKGEKPYTVRPGSLLKEADLDAERKVIEKKLEREVSDFEFASYLMYPKVFTDFALASDTYGPVSVLPTPAYFYGLADGEELFADIEKGKTLVIVNQAVSATDSQGMVTVFFELNGQPRRIKVPDRAHGATGAAVRRKAEPGNAAHVGAPMPGVISRVFVSSGQAVNAGDVLVSIEAMKMETAIHAEKDGTIAEVLVKAGDQIDAKDLLAVYGG
- kcat (other: (−) acetyl-CoA): 0.282 ± 0.0133 s⁻¹
- kcat/Km (other: (−) acetyl-CoA): 5830 ± 250 M⁻¹ s⁻¹
- kcat [1]: 0.282 ± 0.0133 s⁻¹
- kcat/Km [1]: 5830 ± 250 M⁻¹ s⁻¹
